Values of other authors in PMC5760734, “Development of an oral once-weekly drug delivery system for HIV antiretroviral therapy” (Nature Communications, 2018).

Settings: dosed orally in pigs; cited from earlier work

Q: For cyclosporine A, which “concentrations achieved in pigs relative to those observed in humans” value is on record?
A: about one tenth
